Assay results published in publication PMC8235661, “Photoelectric Dye, NK-5962, as a Potential Drug for Preventing Retinal Neurons from Apoptosis: Pharmacokinetic Studies Based on Review of the Evidence” (Life, 2021).

Assay: PAMPA (parallel artificial membrane permeability assay)
Type: in vitro ADME
Conditions: reference compound at 500 μM
Description: In order to determine the passive membrane diffusion rates, the Corning Gentest Pre-coated PAMPA Plate System was used in the PAMPA test. […] The acceptor plate was then placed on top of the donor plate and incubated at 37 °C without agitation for 4 h. At the end of the incubation, the plates were separated and the solutions from each well of both the acceptor plate and the donor plate were transferred to 96-well plates and mixed with acetonitrile. The final concentrations of compound in both the donor wells and acceptor wells, as well as the concentrations of the initial donor solutions, were analyzed by LC-MS/MS. The permeability of the compound was calculated according to the previous report. The recovery of the test compound was more than 90%.

O=C(O)c1cc(/N=N/c2ccc(S(=O)(=O)Nc3ccccn3)cc2)ccc1O [sulfasarazine]
PAMPA permeability of reference compound: 0.034 ×10⁻⁶ cm/s
